From ChEMBL document CHEMBL1124719, “Selective opioid receptor agonists and antagonists: research tools and potential therapeutic agents” (1990) come the findings set out here.

Protein sequences, listed by entry. Tags and fused reporters are not part of them. Lines headed by an entry give the natural chain unless they say otherwise; changes in a name come on top.
UniProt P41144: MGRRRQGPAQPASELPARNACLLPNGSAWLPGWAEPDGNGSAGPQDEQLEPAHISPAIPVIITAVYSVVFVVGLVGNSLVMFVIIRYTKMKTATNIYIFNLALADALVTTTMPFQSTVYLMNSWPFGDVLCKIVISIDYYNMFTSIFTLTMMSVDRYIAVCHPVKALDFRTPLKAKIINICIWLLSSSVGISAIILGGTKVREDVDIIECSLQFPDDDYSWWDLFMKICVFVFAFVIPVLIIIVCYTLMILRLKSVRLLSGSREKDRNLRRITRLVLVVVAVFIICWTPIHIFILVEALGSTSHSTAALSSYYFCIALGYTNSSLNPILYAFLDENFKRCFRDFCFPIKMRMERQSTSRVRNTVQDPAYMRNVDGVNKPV
UniProt P35372, whole entry, looked up: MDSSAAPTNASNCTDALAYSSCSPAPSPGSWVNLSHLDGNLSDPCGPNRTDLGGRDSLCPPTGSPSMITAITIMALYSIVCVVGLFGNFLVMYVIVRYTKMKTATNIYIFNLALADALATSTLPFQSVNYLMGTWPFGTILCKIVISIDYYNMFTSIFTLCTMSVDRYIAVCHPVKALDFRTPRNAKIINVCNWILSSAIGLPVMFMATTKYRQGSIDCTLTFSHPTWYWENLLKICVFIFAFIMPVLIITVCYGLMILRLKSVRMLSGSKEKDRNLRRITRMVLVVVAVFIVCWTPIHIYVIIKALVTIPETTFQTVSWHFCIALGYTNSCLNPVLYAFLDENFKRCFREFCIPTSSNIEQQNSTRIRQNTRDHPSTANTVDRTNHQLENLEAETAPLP
UniProt P32300, whole entry, looked up: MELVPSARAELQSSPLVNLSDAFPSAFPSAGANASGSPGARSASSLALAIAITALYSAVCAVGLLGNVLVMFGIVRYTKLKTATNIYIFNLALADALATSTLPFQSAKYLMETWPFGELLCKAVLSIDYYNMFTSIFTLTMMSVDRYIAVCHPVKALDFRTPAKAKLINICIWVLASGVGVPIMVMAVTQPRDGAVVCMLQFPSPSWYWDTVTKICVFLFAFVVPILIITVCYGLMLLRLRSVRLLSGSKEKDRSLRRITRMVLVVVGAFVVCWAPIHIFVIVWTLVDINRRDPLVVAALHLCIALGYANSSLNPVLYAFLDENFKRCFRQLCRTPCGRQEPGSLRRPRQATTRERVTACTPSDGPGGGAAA

The target of test [1] is Kappa-type opioid receptor (Cavia porcellus) (UniProt P41144). In words: In vivo ability to inhibit binding of Opioid receptor kappa 1 in guinea pig brain. The note with it: concentration not given here.
Test [2] addresses Mu-type opioid receptor (Homo sapiens) (UniProt P35372). In words: In vivo ability to inhibit binding of Opioid receptor mu 1; No significant effect.
Test [3] concerns the target Delta-type opioid receptor (Mus musculus) (UniProt P32300). In words: In vivo ability to inhibit binding of Opioid receptor delta 1 in mouse vas deferens; No significant effect.

The inhibition is the drop in the measured response relative to a control, in per cent.

The source made the active and inactive calls. No cut-off for these calls is given here.

In test [1], `CN(C(=O)Cc1ccccc1N=C=S)[C@H]1CCCC[C@@H]1N1CCCC1` displayed an inhibition of 90%. In addition, the inhibition result in test [2] and in test [3] was “inactive” in each case.
